Measurements published in patent US11110158B2, “Prostate-associated antigens and vaccine-based immunotherapy regimens” (Pfizer Inc., priority 2012, dated 2021).

Tested on: PC3
Assay: Antibody-dependent cell-mediated cytotoxicity, chromium 51 release, human PBMC effectors
Type: cell-based
Conditions: target PC3 (PSMA negative); plasma 1:50 or control mAb
Protocol: An Indian rhesus macaque was immunized with a nucleic acid encoding a human PSMA modified antigen delivered by adenovirus (1e11 V.P. injected intramuscularly) followed by 2 PMED immunizations (8 actuations/immunization, 4 actuations per each right and left side of the lower abdomen) with 8 and 6 week intervals respectively. The animal also received intradermal injections of 3 mg of CpG (PF-03512676) in proximity to each inguinal draining lymph node at the time of the second PMED immunization. The antibody dependent cell-mediated cytotoxicity was determined from the plasma collected from the blood before any immunizations (pre-immune plasma) and 8 days after the last PMED immunization (immune plasma).
Antibody-dependent cell-mediated cytotoxicity was determined using the standard chromium 51 release assay. Human prostate cancer cell lines LNCaP and PC3 were used as target cells. Freshly isolated human PBMC cells were used as effector cells. […] Specific lysis was calculated as follows: Percent release=(ER-SR)/(MR-SR)×100 where ER (effectors+target cells release) was experimental release, SR (target cells alone incubated with media) was spontaneous release, and MR (target cells alone incubated with 2N HCl) was maximum release. Percent specific lysis was calculated by subtracting irrelevant target (PC3) release from antigen specific target (LNCaP) release.

## Herceptin: monoclonal antibody against HER-2, positive control
  Percent specific lysis at E:T of 30:1: 8.04%
